pIC50: −log10 of the molar value.
Key:
KK-Ay mice = test: anti-diabetic efficacy in KK-Ay mice (change in serum glucose levels); details: change in serum glucose levels compared to untreated control animals, 0.018% (30 mg/kg) dietary admixture in powdered diet
PPARγ = PPARγ (UniProt P37231); test: PPARγ ligand binding assay utilizing [3H]-BRL 49653 as the radioligand; details: concentration reducing by 50% the specific binding of [3H]-BRL 49653

Protein sequences, listed by entry. Tags and fused reporters are not part of them.
UniProt P37231, whole entry: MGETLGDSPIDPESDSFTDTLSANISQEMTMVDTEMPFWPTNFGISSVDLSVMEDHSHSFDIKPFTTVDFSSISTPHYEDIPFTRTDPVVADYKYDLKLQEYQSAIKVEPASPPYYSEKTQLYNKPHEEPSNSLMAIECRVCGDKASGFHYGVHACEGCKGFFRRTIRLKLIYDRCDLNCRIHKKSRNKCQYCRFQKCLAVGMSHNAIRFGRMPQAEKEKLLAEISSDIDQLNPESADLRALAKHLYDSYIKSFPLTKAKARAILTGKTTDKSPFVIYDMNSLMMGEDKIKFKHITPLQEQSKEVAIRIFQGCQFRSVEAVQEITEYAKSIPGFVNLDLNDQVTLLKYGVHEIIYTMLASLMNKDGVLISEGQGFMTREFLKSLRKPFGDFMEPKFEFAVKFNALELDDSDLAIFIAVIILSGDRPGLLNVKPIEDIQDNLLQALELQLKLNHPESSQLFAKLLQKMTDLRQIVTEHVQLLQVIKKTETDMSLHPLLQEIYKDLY

pIC50 (PPARγ) | Compound | KKAy Glucose (KK-Ay mice)
> 6.00 | Cc1ccc2nc(Nc3c(Cl)cc(NS(=O)(=O)c4ccc(C(F)(F)F)cc4Cl)cc3Cl)sc2c1 | − ((−) <10%)
> 6.00 | Cc1ccc2sc(Sc3c(Cl)cc(NS(=O)(=O)c4ccc(C(F)(F)F)cc4Cl)cc3Cl)nc2c1 | 
> 6.00 | O=S(=O)(Nc1ccc(Sc2ccc(Cl)c(Cl)c2)c(Cl)c1)c1ccc(Cl)cc1Cl | 
> 5.00 | Nc1cc(Cl)c(Oc2nc3ccc(Cl)cc3s2)c(Cl)c1 | + ((+) 10% to 20%)
> 6.00 | Cc1cc(S(=O)(=O)Nc2cc(Cl)c(Oc3cnc4ccccc4c3)c(Cl)c2)c(Cl)cc1Cl | ++ ((++) glucose lowering >20%)

The next lines start with the compound.

Compound | pIC50 (PPARγ) | KKAy Glucose (KK-Ay mice)
O=S(=O)(Nc1ccc(Sc2ccc(Cl)c(Cl)c2)c(Cl)c1)c1ccc(Cl)c(Cl)c1 | > 5.00 | 
O=S(=O)(Nc1ccc(Sc2ccc(Cl)c(Cl)c2)c(Cl)c1)c1ccc(I)cc1 | > 5.00 | 
O=S(=O)(Nc1cc(Cl)c(Oc2cnc3ccccc3c2)c(Cl)c1)c1ccc(Cl)cc1Cl |  | ++ ((++) glucose lowering >20%)
